Assay results as given in PMC3162150 (Cancer Chemotherapy and Pharmacology, 2011).

Assay: 12-lead ECG monitoring during the core phase
Settings: period 2 (ketoconazole only), N = 14

CC(=O)N1CCN(c2ccc(OCC3COC(Cn4ccnc4)(c4ccc(Cl)cc4Cl)O3)cc2)CC1 (stereo not drawn) [ketoconazole, reference compound]
QTcB increase >60 ms: 0 patients (%) | ST segment depression: 0 patients (%) | Sinus bradycardia: 1 (7%) patients (%)
